# pKd: −log10 of the molar value.
# Amino acid sequences for entries named in this document (tags omitted). Residues count along the entry.
# UniProt Q6A037, 613-893: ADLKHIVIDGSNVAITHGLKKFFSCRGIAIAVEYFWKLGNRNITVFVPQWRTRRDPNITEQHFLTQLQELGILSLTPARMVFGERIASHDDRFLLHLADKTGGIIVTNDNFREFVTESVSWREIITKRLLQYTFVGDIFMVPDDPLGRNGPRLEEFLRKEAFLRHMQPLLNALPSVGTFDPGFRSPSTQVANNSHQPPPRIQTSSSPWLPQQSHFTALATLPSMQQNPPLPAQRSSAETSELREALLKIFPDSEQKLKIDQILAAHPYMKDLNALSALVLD
# Molecular target: TF-N4BP1 (613–893) (mouse) (UniProt Q6A037)
# Test: SPR; Biacore S200; TF-N4BP1 fragment amine-coupled to a CM5 chip, mono- and diUb flowed over at 30 μl/min; HBS-P+ (10 mM HEPES pH 7.4, 150 mM NaCl, 0.05% Tween 20), 25 °C; KD from plateau levels
row,pKd,Substance
1,4.47,K48-diUb (from UniProt P0CG48 1-76)
2,4.96,K63-diUb (from UniProt P0CG48 1-76)
